Patent publication US20070191336A1 (priority 2003, published 2007)

Amino acid sequences for entries named in this document (tags omitted).
UniProt Q16539, whole entry: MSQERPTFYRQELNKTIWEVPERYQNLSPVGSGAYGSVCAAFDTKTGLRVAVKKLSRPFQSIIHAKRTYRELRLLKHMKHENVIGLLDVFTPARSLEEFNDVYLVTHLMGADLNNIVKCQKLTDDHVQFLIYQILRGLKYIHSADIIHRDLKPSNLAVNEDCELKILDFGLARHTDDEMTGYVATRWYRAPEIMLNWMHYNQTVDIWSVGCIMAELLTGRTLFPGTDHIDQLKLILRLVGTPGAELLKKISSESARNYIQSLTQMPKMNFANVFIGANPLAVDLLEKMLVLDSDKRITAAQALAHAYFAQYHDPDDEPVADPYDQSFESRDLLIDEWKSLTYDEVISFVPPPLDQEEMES

The compounds below were run against T1, phospho p-38 alpha kinase (Homo sapiens, UniProt Q16539) (assay: P-38 alpha kinase assay (spectrophotometric, pyruvate kinase/lactate dehydrogenase coupled)). Conditions: Table 2; rates from […] to 2 h time frame.
T1 construct: purchased Panvera
Type: biochemical
Description: In this assay, the oxidation of NADH was continuously measured spectrophometrically. […] The reaction was initiated by adding ATP. The absorption at 340 nm was monitored continuously for up to 4 hours at 30° C. on Polarstar Optima plate reader (BMG). The kinase activity (reaction rate) was calculated from the slope at the time frame from 1.5 h to 2 h.
For inhibition determinations, test compounds were incubated with the reaction mixture for ˜5 min before adding ATP to start the reaction. […] IC50 values were calculated from a series of % inhibition values determined at a range of concentrations of each inhibitor using Prism to process the data and fit inhibition curves. Generally, the rates obtained at the time frame of 1.5 h to 2 h were used for these calculations.
Compound `COc1cccc(-n2nc(C(C)(C)C)cc2NC(=O)Nc2ccc(Cl)cc2)c1` [Example 40, 1-[3-tert-butyl-1-(3-methoxyphenyl)-1H-pyrazol-5-yl]-3-(4-chlorophenyl)urea] has an IC50 of 55 nM. `CC1(C)C(=O)NN(Cc2cccc(-n3nc(C(C)(C)C)cc3NC(=O)Nc3ccc(Cl)cc3)c2)C1=O` [Example 14, 1-(3-tert-butyl-1-{3-[(4,4-dimethyl-3,5-dioxopyrazolidin-1-yl)methyl]phenyl}-1H-pyrazol-5-yl)-3-(4-chlorophenyl)urea] was tested, and the IC50 was 96 nM. Work on `COc1ccc(-n2nc(C(C)(C)C)cc2NC(=O)Nc2ccc(Cl)cc2)cc1` [Example 53, 1-{3-tert-butyl-1-(4-methoxyphenyl)-1H-pyrazol-5-yl}-3-(4-chlorophenyl)urea] yielded an IC50 of 109 nM. `CC(C)(C)c1cc(NC(=O)Nc2ccc(Br)cc2)n(-c2ccc(CO)cc2)n1` [Example 60] was tested, and the IC50 was 264 nM.

Same assay, conditions: Table 3; rates from […] to 2 h time frame
For `COc1ccc(NC(=O)Nc2cc(C(C)(C)C)nn2-c2cccc(CN3CC(=O)NS3(=O)=O)c2)c2ccccc12` [Example 298, 1-(5-t-butyl-2-{3-[5-1,1,4-trioxo-1λ^6-[1,2,5]thiadiazolidin-2-ylmethyl]-phenyl}-2H-pyrazol-3-yl)-1-(4-methoxynaphthyl)urea], the IC50 was 25 nM. Compound `CCOC(=O)CCc1cccc(-n2nc(C(C)(C)C)cc2NC(=O)Nc2ccc(F)cc2)c1` [Example 145, 3-(3-{3-t-butyl-5-[3-(4-fluoro-phenyl)-ureido]-pyrazol-1-yl}-phenyl)-propionic acid ethyl ester] has an IC50 of 1300 nM. `CC(C)(C)c1cc(NC(=O)Nc2ccc(Cl)cc2)n(-c2cccc(Cn3c(=O)sn(-c4ccccc4)c3=O)c2)n1` [Example 289, 1-(3-t-butyl-1-(3-((3,5-dioxo-2-phenyl-1,2,4-thiadiazolidin-4-yl)methyl)phenyl)-1H-pyrazol-5-yl)-3-(4-chlorophenyl)urea] showed an IC50 of 1300 nM. `CC(C)(C)c1cc(NC(=O)Nc2ccc(Cl)cc2)n(-c2ccc(CO)cc2)n1` [Example 207, 1-[5-t-butyl-2-(4-hydroxymethyl-phenyl)-2H-pyrazol-3-yl]-3-(4-chloro-phenyl)-urea] gave an IC50 of 33 nM. `CC(C)(C)c1cc(NC(=O)Nc2ccc(Cl)cc2)n(-c2cccc(C(=O)O)c2)n1` [Example 284, 3-(3-t-butyl-5-(3-(4-chlorophenyl)ureido)-1H-pyrazol-1-yl)benzoic acid] showed an IC50 of 1950 nM. With `CC(C)(C)c1cc(NC(=O)Nc2cccc3ccccc23)n(-c2cccc(CCN3CCOCC3)c2)n1` [Example 300] the IC50 was 251 nM. `CCOC(=O)CCc1ccc(-n2nc(C(C)(C)C)cc2NC(=O)Nc2cccc3ccccc23)cc1` [Example 296, ethyl 3-(4-(3-tert-butyl-5-(3-(naphthalen-1-yl)ureido)-1H-pyrazol-1-yl)phenyl)propanoate] showed an IC50 of 284 nM. For `CC(C)(C)c1cc(NC(=O)Nc2ccccc2)n(-c2cccc(Oc3ccccc3)c2)n1` [Example 299, 1-[3-tert-, butyl-1-(3-phenoxyphenyl)-1H-pyrazol-5-yl]-3-phenylurea], the IC50 was 2300 nM. `CC(C)(C)c1cc(NC(=O)Nc2ccc(Cl)cc2)n(-c2cccc(CN3CC(=O)NS3(=O)=O)c2)n1` [Example 288, 1-(5-t-butyl-2-{3-[5-1,1,4-trioxo-1λ^6-[1,2,5]thiadiazolidin-2-ylmethyl]-phenyl}-2H-pyrazol-3-yl)-3-(4-chloro-phenyl)-urea] showed an IC50 of 104 nM. `CC(Cc1cccc(-n2nc(C(C)(C)C)cc2NC(=O)Nc2cccc3ccccc23)c1)C(=O)O` (racemic) [Example 201, 3-{3-[3-t-butyl-5-(3-naphthalen-1-yl-ureido)-pyrazol-1-yl]-phenyl}-2-methyl-propionic acid] was tested, and the IC50 was 29 nM. For `CC(C)(C)c1cc(NC(=O)Nc2ccc(Cl)cc2)n(-c2ccc(C(O)C(F)(F)F)cc2)n1` (stereo not drawn) [Example 209, 1-{5-t-butyl-2-[4-(2,2,2-trifluoro-1-hydroxy-ethyl)-phenyl]-2H-pyrazol-3-yl}-3-(4-chloro-phenyl)-urea], the IC50 was 354 nM.
